{"source": "patent US20240191187A1", "about": "“MEDIA AND METHODS FOR GROWING MAMMARY ORGANOIDS” (STEMCELL TECHNOLOGIES CANADA INC., priority 2021, published 2024)", "key": {"[1]": {"tested_on": "human mammary epithelial cells", "test": "Human mammary organoid cell lineage balance by flow cytometry", "details": "just prior to first passage; ~50 ng/mL BMP2 or BMP4; ~25-200 ng/mL NOGGIN or ~10-100 nM LDN193189"}, "[2]": {"tested_on": "human mammary epithelial cells", "test": "Total cell count among formed human mammary organoids", "format": "cell-based", "details": "vs condition where BMP signaling not modulated or inhibited", "protocol": "Fragments of human mammary epithelial cells were isolated from tissue samples obtained from academic collaborators, as follows. Resected tissue samples were minced in a petri dish using a scalpel to cut in a cross-hatched pattern. The minced tissue samples were placed in a dissociation flask in standard culture medium supplemented with BSA, insulin, collagenase and hyaluronidase. The flask was gently shaken overnight on an orbital shaker placed in a 37° C. tissue incubator. The following morning the floating layer of fat was removed by pipette, and the remaining liquid was transferred to a tube and briefly centrifuged at low rpm (˜80 g for 30 seconds). The pellet (A pellet) was set aside and the supernatant was further centrifuged for an incrementally longer period of time and at an incrementally higher rpm (˜200 g for 4 minutes). […]\nThe effects of modulating signaling through BMP were analyzed across multiple experiments in terms of total cell count among formed organoids (FIG. 9A) and the lineage balance of the cells among formed organoids (FIG. 9B). […]\nThe effects of modulating signaling through an ERBB receptor family member were analyzed across multiple experiments in terms of total cell count among formed organoids (FIG. 13A) and the lineage balance of the cells among formed organoids (FIG. 13B). […]"}}}
{"molecule": "BMP2: BMP signaling activator (protein, UniProt P12643 283-396, looked up) Bone morphogenetic protein 2: QAKHKQRKRLKSSCKRHPLYVDFSDVGWNDWIVAPPGYHAFYCHGECPFPLADHLNSTNHAIVQTLVNSVNSKIPKACCVPTELSAISMLYLDENEKVVLKNYQDMVVEGCGCR", "values": [{"measurement": "cell lineage balance, BMP signaling modulators", "setting": "[1]", "value": "significant increase in basal cells and reduction in luminal cells"}, {"measurement": "total cell count among formed organoids, BMP signaling modulators", "setting": "[2]", "value": "a marked net loss of total cells"}]}
